Reference: BindingDB's records for patent US10053463 (Janssen Pharmaceutica NV, 2018)
pIC50: −log10 of the molar value.

The chains behind the UniProt entries cited, without tags or fusion partners. Where a name states a change or a piece, a line headed by the entry shows the natural chain unless it says otherwise.
UniProt Q99572: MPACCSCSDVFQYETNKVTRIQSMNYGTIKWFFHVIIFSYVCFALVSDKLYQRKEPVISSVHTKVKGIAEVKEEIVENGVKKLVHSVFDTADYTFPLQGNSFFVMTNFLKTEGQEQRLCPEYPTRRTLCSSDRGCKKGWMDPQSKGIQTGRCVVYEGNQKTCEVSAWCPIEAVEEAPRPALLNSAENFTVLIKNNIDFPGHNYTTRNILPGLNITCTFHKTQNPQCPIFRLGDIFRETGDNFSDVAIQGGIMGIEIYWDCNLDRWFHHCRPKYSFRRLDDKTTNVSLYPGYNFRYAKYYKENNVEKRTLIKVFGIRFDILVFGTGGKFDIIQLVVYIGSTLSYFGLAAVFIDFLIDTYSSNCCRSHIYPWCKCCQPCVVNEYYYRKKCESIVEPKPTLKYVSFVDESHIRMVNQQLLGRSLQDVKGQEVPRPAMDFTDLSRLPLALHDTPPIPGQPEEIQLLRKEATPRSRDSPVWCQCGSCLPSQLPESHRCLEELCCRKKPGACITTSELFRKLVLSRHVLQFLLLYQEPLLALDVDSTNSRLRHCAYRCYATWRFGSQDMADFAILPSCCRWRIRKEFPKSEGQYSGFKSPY

Target: P2X purinoceptor 7 (Homo sapiens, UniProt Q99572)
Assay: P2X7 FLIPR Assay
Conditions: pH 7.4
Procedure: 1321N1 cells expressing the recombinant human or rat P2X7 channel was cultured in HyQ DME/(HyClone/Dulbecco's Modified Eagle Medium) high glucose supplemented with 10% Fetal Bovine Serum (FBS) and appropriate selection marker. Cells were seeded at a density of 25000 cells/well (96-well clear bottom black walled plates) in 100 μl volume/well. On the day of the experiment, cell plates were washed with assay buffer, containing (in mM): 130 NaCl, 2 KCl, 1 CaCl2, 1 MgCl2, 10 HEPES, 5 glucose; pH 7.40 and 300 mOs. After the wash, cells were loaded with the Calcium-4 dye (Molecular Device) and incubated in the dark for 60 minutes. Test compounds were prepared at 250× the test concentration in neat DMSO. Intermediate 96-well compound plates were prepared by transferring 1.2 μL of the compound into 300 μL of assay buffer. A further 3× dilution occurred when transferring 50 μL/well of the compound plate to 100 μL/well in the cell plate. Cells were incubated with test compounds and dye for 30 minutes. […] The fluorescence change was measured 180 seconds after adding the agonist. Peak fluorescence was plotted as a function of BzATP concentration using Origin 7 software.

SMILES: CC[C@H]1CNC(=S)C(=O)N1Cc1cccc(C(F)(F)F)c1Cl [US10053463, 6]
- pIC50: 5.46
